Assay results published in patent US5650442A, “Use of nitric oxide releasing compounds as hypoxic cell radiation sensitizers” (priority 1994, dated 1997).

Tested on: Chinese hamster V79 lung fibroblasts
Test: Radiation survival of hypoxic V79 monolayers gassed with nitrogen and exposed to NO gas
Format: cell-based
Settings: hypoxic cell radiosensitization
Method: Hypoxic Chinese hamster V79 lung fibroblasts of Example 2 were irradiated at room temperature with 4 MeV photons from a linear accelerator at a dose rate of 1.5 Gy/min. Full electron equilibrium was ensured for all irradiations.
Following irradiation, the various cell suspensions were pipetted, counted, diluted, and plated for macroscopic colony formation. Each dose determination was plated in triplicate and experiments were repeated a minimum of two times. Plates were incubated for seven days, after which colonies were fixed with methanol/acetic acid (3:1), stained with crystal violet, and counted. Colonies containing >50 cells were scored and graphed as FIGS. 1-3. Error bars in the graphs represent the standard deviation of the mean and are shown when larger than the symbol used to designate a data point. Survival curve data were fitted using a linear quadratic model of Albright (Radiat. Res., 112, 331-340 (1987)), and the survival curves shown in the figures represent the best fit curves for the experimental data points. Sensitizer enhancement ratios (SER) were calculated by dividing the radiation dose for control hypoxic conditions by the radiation dose for various agents under hypoxic conditions at the 1% surviving fraction level.

Substance: nitric oxide [NO gas]
- k value (concentration required to yield half the maximum effect): 10^4 ppm
